This test concerns dopamine reuptake; depletion of brain dopamine. The experiment in a line: In vivo inhibition of dopamine reuptake (prevention of α-methyl-m-tyrosine-induced depletion of brain dopamine). Details: species or system rat (Sprague-Dawley). The settings on record: Rattus norvegicus, po, 4 h, read-out: ED50 (dose to prevent depletion of brain dopamine by 50%). The text has this: (2) In vivo inhibition of dopamine reuptake
An in vivo test for dopamine reuptake inhibition relies on the fact that such reuptake inhibitors can prevent the entry of dopamine-depleting agents into neurons. Depleting agents interfere with the neuronal storage mechanism for dopamine so dopamine leaks into the cytoplasm where it is metabolised by monoamine oxidase. Depleting agents therefore induce a large reduction in brain dopamine levels which can be measured experimentally. Prior treatment with a dopamine reuptake inhibitor reduces the depletion of dopamine levels caused by subsequent administration of a depleting agent such as α-methyl-m-tyrosine.
Male Sprague-Dawley rats (180-220 g: Charles River) were randomly assigned to various treatment groups. […]
Brain samples were thawed and homogenised in 4 volumes of 0.4M perchloric acid containing sodium metabisulphite (0.4 mM) and the internal standard 3,4-dihydroxybenzylamine (0.8 μM). […] Supernatants were removed and their dopamine concentration determined using an HPLC (high pressure liquid chromatography) system with fluorimetric detection.
The percentage prevention (P) of depletion of brain dopamine levels by test compounds is calculated from the formula [formula] […]

Broadly, the ED50 is the dose at which the effect has come halfway, by size or by number of responders.

Consider `CC(C)CC(N(C)C)C1(c2ccc(Cl)cc2)CCC1.Cl.O` (stereo not shown) [N,N-dimethyl-1-[1-(4-chlorophenyl)cyclobutyl]-3-methylbutylamine hydrochloride monohydrate], for which the ED50 came to 44 mg/kg.
